Measured values from the supplement of paper PMC7858590.
The lowest values were mostly taken out for another list; the other results follow.

tested on: human monocyte-derived macrophages (M0); test: cell shape (eccentricity) Z-score vs DMSO control; higher = more elongated, M2-like morphology; settings: 20 µM; 24 h; macrophage state: M0 (M-CSF)
Experimental: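 Primary human monocyte-derived macrophages (M-CSF differentiated, pooled from 4 donors, 5000 cells/well in 384-well plates) were treated with each compound at 20 uM for 24 h, then fixed and stained with phalloidin/DAPI and imaged on an Opera Phenix (6 fields, about 1000 cells/well). Cell eccentricity was measured with CellProfiler, and a Z-score (t-test) was computed against 4 DMSO control wells in the same row. Negative values mean round (M1-like) cells and positive values mean elongated (M2-like) cells; the paper's hit cutoffs are Z <= -4 (M1) and Z >= 6 (M2). Scale: negative = round, M1-like.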

| SMILES | cell shape (Z-score) |
| --- | --- |
| NCc1ccc(OCCCc2sc(-c3ccc4c(c3)/C(=N/Nc3nc5ccccc5s3)CCC4)nc2C(=O)O)cc1 | 3.19 |
